{"source": "patent US7416848B2", "about": "“DNA encoding SNORF25 receptor” (H. Lundbeck A/S, priority 1999, dated 2008)", "target": "T1, SNORF25 (Homo sapiens, UniProt Q8TDV5)", "T1 sequence (Q8TDV5 1-335)": "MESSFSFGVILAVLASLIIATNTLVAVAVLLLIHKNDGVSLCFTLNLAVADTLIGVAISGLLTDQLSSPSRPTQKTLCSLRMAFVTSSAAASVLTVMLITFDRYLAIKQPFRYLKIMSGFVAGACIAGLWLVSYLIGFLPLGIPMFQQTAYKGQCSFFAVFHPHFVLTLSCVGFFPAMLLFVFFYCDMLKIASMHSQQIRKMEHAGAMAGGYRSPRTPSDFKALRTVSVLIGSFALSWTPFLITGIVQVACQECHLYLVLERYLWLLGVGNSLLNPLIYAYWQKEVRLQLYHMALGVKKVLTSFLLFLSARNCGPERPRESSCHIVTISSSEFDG", "assay": "Stimulation of cAMP release by CHO cells stably expressing hSNORF25 receptors", "format": "cell-based", "design": "expressed in transfected cells", "details": "mean ± S.E.M., at least 3 experiments", "method": "CHO cells are grown on 150 mm plates in HAM's F-12 medium with supplements (10% bovine calf serum, 4 mM L-glutamine and 100 units/ml penicillin/100 μg/ml streptomycin) at 37° C., 5% CO2. Stock plates of CHO cells are trypsinized and split 1:8 every 3–4 days.\nHeterologous DNA can be stably incorporated into host cells, causing the cell to perpetually express a foreign protein. Methods for the delivery of the DNA into the cell are similar to those described above for transient expression but require the co-transfection of an ancillary gene to confer drug resistance on the targeted host cell. The ensuing drug resistance can be exploited to select and maintain cells that have taken up the DNA. […]\nThe receptor-mediated stimulation or inhibition of cyclic AMP (cAMP) formation may be assayed in cells expressing the receptors. […] The plates are stored at 4° C. for 15 min, and the cAMP content in the stopping solution is measured by radioimmunoassay. Radioactivity may be quantified using a gamma counter equipped with data reduction software. […]\nAccording to a second method, cells are washed 2 times with HEPES buffered saline, as described above, and incubated overnight. […] The plates are stored at 4° C. for 15 min, and the cAMP content in the stopping solution is measured by radioimmunoassay. Radioactivity may be quantified using a gamma counter equipped with data reduction software. […]"}
{"substance": "PAF(C16)", "values": [{"measurement": "EC50", "result": "982 ± 233", "unit": "nM"}]}
